# Measurements taken from patent publication US6824928B2, “Organic borate compounds and the nonaqueous electrolytes and lithium secondary batteries using the compounds” (Hitachi, Ltd., priority 2000, dated 2004).
# Read-outs that look alike come from different tables or passages of the source.
# What was measured:
# [1] = Electroconductivity in fluorinated solvent B (HFE7100/DMC 80:20); assay type: physicochemical
# [2] = 1 M in PC; platinum working electrode, lithium counter/reference; sweep 10 mV/sec
substance,measurement,setting,value
Lithium Tetrakis (Chlorodifluoroacetate) Borate [LB5],concentration at which maximum electroconductivity was obtained,[1]; solvent B: HFE7100/DMC 80:20,0.6 M
same,maximum electroconductivity,[1]; solvent B: HFE7100/DMC 80:20,1.8 mS/cm
same,improvement of electroconductivity,"[1]; solvent B, versus LiN (SO2CF3)2",2.6 times
same,concentration at which maximum electroconductivity was obtained,solvent A: PC/DMC 1:2,0.8 M
same,maximum electroconductivity,solvent A: PC/DMC 1:2,6.2 mS/cm
same,improvement of electroconductivity by factor,"solvent A, versus lithium bis-salicylate borate (comparative example 1)",up to 14.4
same,potential from which significant changes in oxidation current are observed (oxidation decomposition potential),[2],6.8 V
